Bioassay records from PubChem BioAssay.
An excerpt weighted towards active compounds, which were near 0.62% of everything screened.
miR-21 FLuc = miR-21 reporter, rising signal. HeLa miR-21 FLuc reporter, luciferase, 48 h. Potency, µM (highest dose often 38.3 µM), for the others: at the highest dose reporter change, positive = more light. 340,000 tested, under 10 active. AID 2288; active = well fitted rising curve with a large enough effect; inconclusive = small, poorly fitted or top-dose-only effect; inactive = no such curve, though single readings can be large or run the other way;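 further: % of control where 0% means no effect; miR-21 action dims this reporter so a rising signal means less miR-21 action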
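Compounds were titrated across several concentrations (up to approximately 40 uM) and incubated 48 hours with HeLa miR-21-FLuc reporter cells (miR-21 target sequence downstream of FLuc, endogenous miR-21). Readout was firefly luciferase luminescence after lytic detection reagent.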
IL-2 act = activates IL-2 in a cell-based reporter assay | IL-2 activation reporter assay, cell-based qHTS; stimulated with anti-CD3/CD4/CD28 beads; in transgenic mouse T cells | activation, % (series mostly up to about 46 µM) | 0.065% of 360,000 active | AID 652025; in the data active means activation above about 50%; inconclusive means mostly about 30% to 49%; further: 0% is about no effect
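EGFP and DsRed fluorescence is measured by plate cytometry in unstimulated transgenic mouse T cells exposed to compound for 60 minutes, then stimulated 18 hours at 37 degrees C with anti-CD3/anti-CD4 beads plus anti-CD28.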
Epigenetic derep = epigenetic control regulation, reporter derepression | Potency, µM (doses to about 53.9 µM), inactives show at the top dose GFP activation, actives largely listed as activators | AID 1865 | 0.2% of 280,000 active | murine LDR cells, GFP reporter derepression, 30 h; further: potency means the concentration at half of the fitted maximal effect; % of control where 0% means no effect; nearly all actives have a fitted effect of over 60% in size
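Derepression of a silenced CMV-GFP reporter in murine LDR cells is scored by enumerating GFP-positive cells with a laser-scanning microplate cytometer after 30 hours of treatment at 37 C.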
p53 reactivator = re-activators of mutant p53 | H1299 p53-A138V BP100-luciferase reporter, luminescence, 24 h | Potency, µM (top dose mostly 92.2 µM), inactives show at the top dose activity change, positive = activation, actives largely listed as activators | AID 504706 | 0.063% of 320,000 active; further: potency means the concentration at half of the fitted maximal effect; % of control where 0% means no effect; nearly all actives have a fitted effect of over 45% in size
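p53-null H1299 cells stably carrying temperature-sensitive p53-A138V and a BP100-luciferase reporter were pinned with compounds (4-point, 1:5 series) and held 24 hrs at 37 deg C. Luminescence was read 10 min after detection reagent.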
uPA surface inh = blocks generation of uPA at the cell surface; 0.31% of 330,000 active; AID 540303; cell surface uPA generation assay, qHTS; Potency, µM (top dose mostly 38.3 µM), for the others: top-dose activity change, negative = inhibition, most hits filed as inhibitors; active means well fitted inhibition curve with a large enough effect; inconclusive means small, poorly fitted or top-dose-only effect; inactive means no such curve, though single readings can be large or run the other way; tested in mouse RAW 264.7 cells; further: potency means the concentration at half of the fitted maximal effect; on the % scale 0 is the no-effect control and ±100 the full control effect; nearly all actives have a fitted effect of over 55% in size
PINK1 expr mod = modulators of PINK1 expression; PINK1 immunofluorescence, high-content cytometry, 24 h; Potency, µM (highest dose often 76.6 µM), inactives show at the top dose activation (PINK1 increase), most hits filed as activators; 0.2% of 410,000 active; active means well fitted activation curve with a large enough effect; inconclusive means small, poorly fitted or top-dose-only effect; cell line not stated here; further: potency means the concentration at half of the fitted maximal effect; % of control where 0% means no effect; nearly all actives have a fitted effect of over 65% in size
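Decision-based qHTS: stable cells, 24 h exposure to five compound concentrations, CCCP as control. Fixed cells stained for PINK1 plus nuclear, mitochondrial and cell markers, cytometer read.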
* hit, by the source's call. Unless noted, the call rests on the fitted dose curve; in most records, active means well fitted curve in the direction sought with a large enough effect; inconclusive means small, poorly fitted or top-dose-only effect, or another doubt; inactive means no such curve, though single readings can be large; an effect the other way counts as inactive or inconclusive.

How did COc1ccc(N/C=C/C(=O)c2ccccc2)cc1 do in these assays?
miR-21 FLuc: -19%; IL-2 act: -1; p53 reactivator: -3%; uPA surface inh: 10µM*; PINK1 expr mod: 2%

How did CC(=O)Nc1ccc(N/C=C/C(=O)c2ccc(Cl)cc2)cc1 do in these assays?
miR-21 FLuc: -10%; IL-2 act: -1; p53 reactivator: 4%; uPA surface inh: 0%; PINK1 expr mod: 11µM*

What do the screens show for `COc1ccc(N/C=C\C(=O)c2ccc3ccccc3c2)cc1`?
miR-21 FLuc: -55%; IL-2 act: 0; uPA surface inh: 13%; PINK1 expr mod: 1%

How did CC(=O)c1cccc(N/C=C\C(=O)c2ccc(C)cc2)c1 do in these assays?
miR-21 FLuc: -57%; IL-2 act: -1; Epigenetic derep: 0%; p53 reactivator: 35µM*; uPA surface inh: -8%; PINK1 expr mod: -2%

Results for COc1ccc(C(=O)C/C(=C\C(=O)c2ccc(C)cc2)c2ccccc2)cc1 ?
miR-21 FLuc: inconclusive; IL-2 act: -3; Epigenetic derep: -2%; p53 reactivator: 4%; uPA surface inh: -15%; PINK1 expr mod: 25µM*

What do the screens show for `COCC(=O)Nc1cc(C(=O)N2CCCCC2c2nccn2C)cc2nc(-c3ccccc3)n(C)c12` (stereo not drawn)?
PINK1 expr mod: -1%

Results for COc1cc(-c2noc(C)c2-c2ccc(N(C)C)nc2)cc(OC)c1OC ?
miR-21 FLuc: 15%; IL-2 act: 0; p53 reactivator: 10%; uPA surface inh: -73%; PINK1 expr mod: 6%

How did COc1cc(-c2noc(C)c2-c2ccc3[nH]ccc3c2)cc(OC)c1OC do in these assays?
miR-21 FLuc: 15%; IL-2 act: -1; p53 reactivator: 3%; uPA surface inh: 0.56µM*; PINK1 expr mod: 6%

How did COc1ccc(COc2ccsc2C(=O)Nc2ccc(Cl)c(Cl)c2)cc1 do in these assays?
miR-21 FLuc: -10%; IL-2 act: -1; Epigenetic derep: -1%; p53 reactivator: -3%; uPA surface inh: -5%; PINK1 expr mod: 10µM*

What do the screens show for `CCOc1ccc(CCNC(=O)C2CCC(=O)N2C2CCCCC2)cc1OCC` (stereo not drawn)?
miR-21 FLuc: -4%; IL-2 act: -3; Epigenetic derep: -2%; p53 reactivator: 4%; uPA surface inh: 2%; PINK1 expr mod: 4µM*

What do the screens show for `COc1cc(-c2noc(C)c2/C=C/c2cccc([N+](=O)[O-])c2)cc(OC)c1OC`?
miR-21 FLuc: 16%; IL-2 act: -1; p53 reactivator: inconclusive; uPA surface inh: 0.11µM*; PINK1 expr mod: 0%

What do the screens show for `COc1cc(-c2noc(C)c2/C=C/c2ccc(C(=O)O)cc2)cc(OC)c1OC`?
miR-21 FLuc: 13%; IL-2 act: -4; p53 reactivator: 2%; uPA surface inh: inconclusive; PINK1 expr mod: 5%

Random excerpt: 2 entries already listed.
What do the screens show for `COCC(=O)Nc1cc(C(=O)N2CCCCC2c2nccn2C)cc2nc(-c3ccccc3)n(C)c12` (stereo not drawn)?
PINK1 expr mod: -1%

What do the screens show for `COc1ccc(N/C=C\C(=O)c2ccc3ccccc3c2)cc1`?
miR-21 FLuc: -55%; IL-2 act: 0; uPA surface inh: 13%; PINK1 expr mod: 1%

The list continues.
How did O=C(Nc1cccc(S(=O)(=O)Nc2ccc(Cl)cc2)c1)c1ccc(Cl)nc1 do in these assays?
miR-21 FLuc: inconclusive; IL-2 act: -2; Epigenetic derep: -1%; p53 reactivator: 2%; uPA surface inh: 5µM*; PINK1 expr mod: inconclusive

What do the screens show for `COc1ccc(NS(=O)(=O)c2cccc(NC(=O)c3ccc(Cl)nc3)c2)cc1`?
miR-21 FLuc: inconclusive; IL-2 act: -7; Epigenetic derep: 1%; p53 reactivator: inconclusive; uPA surface inh: -11%; PINK1 expr mod: 5%

Results for COc1ccc(NC(=O)c2cccc(S(=O)(=O)Nc3ccc(Br)cc3)c2)cn1 ?
miR-21 FLuc: inconclusive; IL-2 act: -5; Epigenetic derep: 0%; p53 reactivator: 3%; uPA surface inh: -4%; PINK1 expr mod: 14µM*

What do the screens show for `CCOc1ccc(S(=O)(=O)Nc2ccccc2C(=O)Nc2ccccc2N2CCOCC2)cc1`?
miR-21 FLuc: 0%; IL-2 act: -2; Epigenetic derep: -5%; p53 reactivator: 7%; uPA surface inh: 14%; PINK1 expr mod: 11µM*
